Values quoted from earlier work in PMC3694332 (Biopharmaceutics & drug disposition, 2009).

Tests used:
MRP1 = details: Panc-1 cells, 100 μM isothiocyanate, 2 h; cited from earlier work
P-gp = details: cited from earlier work
MRP2 = details: cited from earlier work
[1] = MCF7/ADR cells, 100 μM isothiocyanate, 2 h

Compound: S=C=Nc1cccc2ccccc12 [NITC, α-naphthyl isothiocyanate]
- increase in accumulation of daunomycin (MRP1): 3 fold
- increase in accumulation of vinblastine (MRP1): 5.5 fold
- increase in accumulation of daunomycin (P-gp; [1]): 4 fold
- increase in accumulation of vinblastine (P-gp; [1]): 40 fold
- investigated as substrate (S)/inhibitor (I) (P-gp; MCF7/ADR, P-gp): 1-Naphthyl isothiocyanate(I)
- increased secretion of glutathione into the apical medium (MRP2; 5 μM NITC at apical side for 24 h, compared with control MDCK II cells): 4 fold
- investigated as substrate (S)/inhibitor (I) (MRP2; MDCK II, MRP2): 1-Napthyl isothiocyanate (S)
